## CycPeptMPDB entries from one study

Collected by the curators of CycPeptMPDB (Li et al. 2023) from Kelly et al. 2021, doi:10.1021/jacs.0c06115.

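The data file gives no further conditions (lipid, pH, time, direction or concentration), and values from different papers need not be comparable. Other peptides of the study may be missing here. Entries at the database's floor value (log10 P of -10) are not listed.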

PAMPA is the parallel artificial membrane permeability assay, which has no cells and reads passive diffusion. Permeability is in 10^-6 cm/s, converted from the database's log10 values; higher is more permeable.

The entry for CC(=O)N1CCC[C@@H]1C(=O)N(C)[C@H](CC(C)C)C(=O)N[C@@H]1C(=O)N[C@H](CC(C)C)C(=O)N[C@H](CC(C)C)C(=O)N[C@H](CC(C)C)C(=O)N[C@@H](C)C(=O)N[C@H](CC(C)C)C(=O)N2CCC[C@@H]2C(=O)O[C@@H]1C lists PAMPA 0.036 × 10^-6 cm/s. CC(=O)N1CCC[C@@H]1C(=O)N(C)[C@H](CC(C)C)C(=O)N[C@@H]1C(=O)N[C@@H](CC(C)C)C(=O)N[C@H](CC(C)C)C(=O)N[C@H](CC(C)C)C(=O)N[C@H](C)C(=O)N[C@H](CC(C)C)C(=O)N2CCC[C@H]2C(=O)O[C@@H]1C is reported with PAMPA 0.055 × 10^-6 cm/s. CC(=O)N1CCC[C@H]1C(=O)N(C)[C@H](CC(C)C)C(=O)N[C@@H]1C(=O)N[C@H](CC(C)C)C(=O)N[C@@H](CC(C)C)C(=O)N(C)[C@H](CC(C)C)C(=O)N(C)[C@H](C)C(=O)N[C@@H](CC(C)C)C(=O)N2CCC[C@H]2C(=O)O[C@@H]1C has PAMPA 7.4 × 10^-6 cm/s. Listed for CC(=O)N1CCC[C@H]1C(=O)N(C)[C@@H](CC(C)C)C(=O)N[C@@H]1C(=O)N[C@H](CC(C)C)C(=O)N[C@@H](CC(C)C)C(=O)N[C@@H](CC(C)C)C(=O)N(C)[C@@H](C)C(=O)N[C@@H](CC(C)C)C(=O)N2CCC[C@@H]2C(=O)O[C@@H]1C: PAMPA 0.37 × 10^-6 cm/s.

The entry for CC(=O)N1CCC[C@@H]1C(=O)N(C)[C@H](CC(C)C)C(=O)N[C@@H]1C(=O)N(C)[C@H](CC(C)C)C(=O)N[C@@H](CC(C)C)C(=O)N[C@H](CC(C)C)C(=O)N(C)[C@H](C)C(=O)N[C@H](CC(C)C)C(=O)N2CCC[C@H]2C(=O)O[C@@H]1C lists PAMPA 1 × 10^-6 cm/s. Listed for CC(=O)N1CCC[C@@H]1C(=O)N(C)[C@@H](CC(C)C)C(=O)N[C@@H]1C(=O)N[C@@H](CC(C)C)C(=O)N(C)[C@@H](CC(C)C)C(=O)N[C@@H](CC(C)C)C(=O)N(C)[C@@H](C)C(=O)N[C@H](CC(C)C)C(=O)N2CCC[C@H]2C(=O)O[C@@H]1C: PAMPA 1 × 10^-6 cm/s. CC(=O)N1CCC[C@H]1C(=O)N(C)[C@@H](CC(C)C)C(=O)N[C@@H]1C(=O)N[C@H](CC(C)C)C(=O)N(C)[C@H](CC(C)C)C(=O)N[C@@H](CC(C)C)C(=O)N(C)[C@@H](C)C(=O)N[C@H](CC(C)C)C(=O)N2CCC[C@H]2C(=O)O[C@@H]1C has PAMPA 6.6 × 10^-6 cm/s. CC(=O)N1CCC[C@@H]1C(=O)N(C)[C@H](CC(C)C)C(=O)N[C@@H]1C(=O)N[C@@H](CC(C)C)C(=O)N(C)[C@@H](CC(C)C)C(=O)N[C@@H](CC(C)C)C(=O)N(C)[C@H](C)C(=O)N[C@H](CC(C)C)C(=O)N2CCC[C@@H]2C(=O)O[C@@H]1C has PAMPA 3.5 × 10^-6 cm/s.

CC(=O)N1CCC[C@H]1C(=O)N[C@@H]1C(=O)N(C)[C@H](CC(C)C)C(=O)N[C@H](CC(C)C)C(=O)N[C@H](CC(C)C)C(=O)N(C)[C@@H](CC(C)C)C(=O)N(C)[C@H](C)C(=O)N[C@@H](CC(C)C)C(=O)N2CCC[C@@H]2C(=O)O[C@@H]1C has PAMPA 0.43 × 10^-6 cm/s. The entry for CC(=O)N1CCC[C@H]1C(=O)N(C)[C@@H](CC(C)C)C(=O)N[C@@H]1C(=O)N[C@H](CC(C)C)C(=O)N[C@H](CC(C)C)C(=O)N(C)[C@@H](CC(C)C)C(=O)N(C)[C@@H](C)C(=O)N[C@H](CC(C)C)C(=O)N2CCC[C@@H]2C(=O)O[C@@H]1C lists PAMPA 0.4 × 10^-6 cm/s. CC(=O)N1CCC[C@@H]1C(=O)N(C)[C@H](CC(C)C)C(=O)N[C@@H]1C(=O)N(C)[C@H](CC(C)C)C(=O)N[C@@H](CC(C)C)C(=O)N(C)[C@@H](CC(C)C)C(=O)N(C)[C@@H](C)C(=O)N[C@H](CC(C)C)C(=O)N2CCC[C@@H]2C(=O)O[C@@H]1C has PAMPA 0.98 × 10^-6 cm/s. Listed for CC(=O)N1CCC[C@H]1C(=O)N[C@@H]1C(=O)N[C@H](CC(C)C)C(=O)N[C@@H](CC(C)C)C(=O)N(C)[C@@H](CC(C)C)C(=O)N[C@@H](CC(C)C)C(=O)N(C)[C@@H](C)C(=O)N[C@@H](CC(C)C)C(=O)N2CCC[C@@H]2C(=O)O[C@@H]1C: PAMPA 7.2 × 10^-6 cm/s.

The entry for CC(=O)N1CCC[C@@H]1C(=O)N(C)[C@H](CC(C)C)C(=O)N[C@@H]1C(=O)N[C@H](CC(C)C)C(=O)N[C@@H](CC(C)C)C(=O)N(C)[C@H](CC(C)C)C(=O)N(C)[C@@H](C)C(=O)N[C@@H](CC(C)C)C(=O)N2CCC[C@H]2C(=O)O[C@@H]1C lists PAMPA 2.9 × 10^-6 cm/s. CC(=O)N1CCC[C@@H]1C(=O)N(C)[C@@H](CC(C)C)C(=O)N[C@@H]1C(=O)N(C)[C@H](CC(C)C)C(=O)N(C)[C@@H](CC(C)C)C(=O)N(C)[C@@H](CC(C)C)C(=O)N[C@@H](C)C(=O)N[C@@H](CC(C)C)C(=O)N2CCC[C@H]2C(=O)O[C@@H]1C is reported with PAMPA 3.9 × 10^-6 cm/s. CC(=O)N1CCC[C@H]1C(=O)N(C)[C@@H](CC(C)C)C(=O)N[C@@H]1C(=O)N[C@H](CC(C)C)C(=O)N(C)[C@@H](CC(C)C)C(=O)N(C)[C@H](CC(C)C)C(=O)N[C@H](C)C(=O)N[C@@H](CC(C)C)C(=O)N2CCC[C@H]2C(=O)O[C@@H]1C has PAMPA 1.4 × 10^-6 cm/s. CC(=O)N1CCC[C@H]1C(=O)N[C@@H]1C(=O)N[C@H](CC(C)C)C(=O)N[C@H](CC(C)C)C(=O)N[C@H](CC(C)C)C(=O)N[C@H](CC(C)C)C(=O)N[C@H](C)C(=O)N[C@@H](CC(C)C)C(=O)N2CCC[C@@H]2C(=O)O[C@@H]1C is reported with PAMPA 1.1 × 10^-6 cm/s.

CC(=O)N[C@@H]1C(=O)N2CCC[C@H]2C(=O)N(C)[C@H](CC(C)C)C(=O)N[C@H](CC(C)C)C(=O)N[C@H](CC(C)C)C(=O)N[C@@H](CC(C)C)C(=O)N(C)[C@@H](C)C(=O)N[C@@H](CC(C)C)C(=O)N2CCC[C@@H]2C(=O)O[C@@H]1C has PAMPA 0.17 × 10^-6 cm/s. The entry for CC(=O)N1CCC[C@H]1C(=O)N(C)[C@@H](CC(C)C)C(=O)N[C@@H]1C(=O)N[C@@H](CC(C)C)C(=O)N(C)[C@@H](CC(C)C)C(=O)N(C)[C@@H](CC(C)C)C(=O)N(C)[C@@H](C)C(=O)N[C@@H](CC(C)C)C(=O)N2CCC[C@@H]2C(=O)O[C@@H]1C lists PAMPA 1.8 × 10^-6 cm/s. CC(=O)N1CCC[C@@H]1C(=O)N(C)[C@@H](CC(C)C)C(=O)N[C@@H]1C(=O)N(C)[C@@H](CC(C)C)C(=O)N(C)[C@H](CC(C)C)C(=O)N(C)[C@@H](CC(C)C)C(=O)N(C)[C@H](C)C(=O)N[C@H](CC(C)C)C(=O)N2CCC[C@H]2C(=O)O[C@@H]1C is reported with PAMPA 3.5 × 10^-6 cm/s. The entry for CC(=O)N1CCC[C@H]1C(=O)N(C)[C@@H](CC(C)C)C(=O)N[C@@H]1C(=O)N[C@H](CC(C)C)C(=O)N(C)[C@H](CC(C)C)C(=O)N(C)[C@@H](CC(C)C)C(=O)N(C)[C@H](C)C(=O)N[C@H](CC(C)C)C(=O)N2CCC[C@@H]2C(=O)O[C@@H]1C lists PAMPA 0.62 × 10^-6 cm/s.

The entry for CC(=O)N1CCC[C@@H]1C(=O)N(C)[C@H](CC(C)C)C(=O)N[C@@H]1C(=O)N(C)[C@H](CC(C)C)C(=O)N[C@H](CC(C)C)C(=O)N[C@@H](CC(C)C)C(=O)N(C)[C@@H](C)C(=O)N[C@@H](CC(C)C)C(=O)N2CCC[C@H]2C(=O)O[C@@H]1C lists PAMPA 0.14 × 10^-6 cm/s.

The last 3 entries again:

{"smiles": "CC(=O)N1CCC[C@@H]1C(=O)N(C)[C@@H](CC(C)C)C(=O)N[C@@H]1C(=O)N(C)[C@@H](CC(C)C)C(=O)N(C)[C@H](CC(C)C)C(=O)N(C)[C@@H](CC(C)C)C(=O)N(C)[C@H](C)C(=O)N[C@H](CC(C)C)C(=O)N2CCC[C@H]2C(=O)O[C@@H]1C", "PAMPA (10^-6 cm/s)": "3.5"}
{"smiles": "CC(=O)N1CCC[C@H]1C(=O)N(C)[C@@H](CC(C)C)C(=O)N[C@@H]1C(=O)N[C@H](CC(C)C)C(=O)N(C)[C@H](CC(C)C)C(=O)N(C)[C@@H](CC(C)C)C(=O)N(C)[C@H](C)C(=O)N[C@H](CC(C)C)C(=O)N2CCC[C@@H]2C(=O)O[C@@H]1C", "PAMPA (10^-6 cm/s)": "0.62"}
{"smiles": "CC(=O)N1CCC[C@@H]1C(=O)N(C)[C@H](CC(C)C)C(=O)N[C@@H]1C(=O)N(C)[C@H](CC(C)C)C(=O)N[C@H](CC(C)C)C(=O)N[C@@H](CC(C)C)C(=O)N(C)[C@@H](C)C(=O)N[C@@H](CC(C)C)C(=O)N2CCC[C@H]2C(=O)O[C@@H]1C", "PAMPA (10^-6 cm/s)": "0.14"}